Experimental data from patent US20070249807A1.

Biological target: human plasma kallikrein (human) (UniProt P03952)
Test: cell-based or functional assay

**Q.** For aprotinin (from UniProt P00974 36-93), which specific activity in the standard inhibitory assay used for PEP-1 is on record?
**A.** 0.4 KIU/mg
